Experiment: Stability in ammonium carbonate buffer by high resolution ESI-MS
Conditions: ammonium carbonate buffer pH 7.4, 37° C., 1, 3 and 24 hours

## [Au^III(2-phenylpyridine)(metformin)]PF6 [Compound 1met]
  stability, detection of molecular ion [M]+: stable for 24 hours

Reference: US20230106519A1, “GOLD(III)-BIGUANIDE PRODRUGS, METHODS OF PREPARATION AND USES THEREOF” (National University of Singapore, priority 2020, published 2023)
